{"source": "patent US5916925A", "about": "“Pharmaceutical composition for treatment of dementia” (Takeda Chemical Industries, Ltd., priority 1996, dated 1999)", "test": "in vivo", "conditions": "mouse", "data": [{"smiles": "COC1=C(OC)C(=O)C(CCCCCCCCCCO)=C(C)C1=O", "note": "[idebenone, 6-(10-hydroxydecyl) -2,3-dimethoxy-5-methyl-1,4-benzoquinone]", "values": [{"measurement": "LD50", "value": "≥ 10000", "unit": "mg/kg"}]}]}
